This is an account of results in patent publication US6713294B1, “DNA glycosylases and their use” (priority 1996, dated 2004).

For this series, the system named is ^3H-uracil released in uracil-DNA glycosylase assays. In words: Uracil-DNA glycosylase activity after coupled transcription/translation in rabbit reticulocyte lysates. It is filed as biochemical. The method, then:
In vitro transcription/translation was performed with the TNT® transcription/translation system with […] as recommended by the manufacturer, using 200 ng of the expression constructs per 10 μl reaction volume. The mouse UNG1-pBluescript® construct was transcribed from the T3 promoter in the pBluescript® vector. The insert of mouse UNG2-pBluescript® was amplified by the polymerase chain reaction using Dynazyme® PCR kit, ligated into the pGEM-T vector and transcribed from the T7 promoter. The human UNG2-pBluescript was transcribed from the T3 promoter after SacII/NheI excision of a 79 bp fragment from the polylinker and the 5′-end of cDNA for UNG2. Human UNG1 CDNA was transcribed from the T7 promoter as previously described (Slupphaug et al., 1995, Biochemistry, 34, p128-138). The samples were run on a 12% denaturing sodium dodecyl sulfate polyacrylamide gel (SDS-PAGE). […] Uracil-DNA glycosylase activity was measured in parallel samples of the in vitro transcription/translation assay mixture containing unlabelled amino acids (Slupphaug et al., 1995, supra). […]
For calculations of the relative specific activities, the radioactivity released in uracil-DNA glycosylase assays was compared to band intensities on an SDS-PAGE gel from transcription/translation reactions using [^35S] methionine (Table 6).

“human UNG2: new human uracil-DNA glycosylase from alternative splicing, 313 amino acids, nuclear (SEQ ID No 2)”: the “dpm (^3H-uracil released)” value (after subtraction of background of 123 dpm) is given as 6360 dpm. In addition, for the setting “translation in rabbit reticulocyte lysates”, the “Activity (dpm/area), relative specific activity” value stood at 23731 dpm/area.
